Data published in patent US20010036948A1 (priority 1998, published 2001).
Read-outs that look alike come from different tables or passages of the source.

System: T/G Human Aortic Smooth Muscle Cells
Settings: scored eight days following treatment

Measured: Growth score

COc1ccc2c(c1)=C(NC(C)CCCN(CCCl)CCCl)C1C=CC(Cl)=CC1N=2 (stereo not shown)
3+: 100 nM, exposure 15 seconds | 100 nM, exposure 30 seconds | 100 nM, exposure 60 seconds
1+: 1 μM, exposure 180 seconds | 10 μM, exposure 15 seconds
+/−: 10 μM, exposure 30 seconds | 10 μM, exposure 60 seconds | 10 μM, exposure 90 seconds
4+: 1 nM, exposure 15 seconds | 1 nM, exposure 30 seconds | 1 nM, exposure 60 seconds | 1 nM, exposure 90 seconds | 1 nM, exposure 180 seconds | 10 nM, exposure 15 seconds | 10 nM, exposure 30 seconds | 10 nM, exposure 60 seconds | 10 nM, exposure 90 seconds | 10 nM, exposure 180 seconds
2+: 100 nM, exposure 90 seconds | 100 nM, exposure 180 seconds | 1 μM, exposure 15 seconds | 1 μM, exposure 30 seconds | 1 μM, exposure 60 seconds | 1 μM, exposure 90 seconds
−/+: 10 μM, exposure 180 seconds
